Data published in patent US11230683B2 (priority 2020, dated 2022).
Converted amounts (≈) assume the structure as drawn.

The chains behind the UniProt entries cited, without tags or fusion partners. Where a name states a change or a piece, a line headed by the entry shows the natural chain unless it says otherwise.
UniProt P22303: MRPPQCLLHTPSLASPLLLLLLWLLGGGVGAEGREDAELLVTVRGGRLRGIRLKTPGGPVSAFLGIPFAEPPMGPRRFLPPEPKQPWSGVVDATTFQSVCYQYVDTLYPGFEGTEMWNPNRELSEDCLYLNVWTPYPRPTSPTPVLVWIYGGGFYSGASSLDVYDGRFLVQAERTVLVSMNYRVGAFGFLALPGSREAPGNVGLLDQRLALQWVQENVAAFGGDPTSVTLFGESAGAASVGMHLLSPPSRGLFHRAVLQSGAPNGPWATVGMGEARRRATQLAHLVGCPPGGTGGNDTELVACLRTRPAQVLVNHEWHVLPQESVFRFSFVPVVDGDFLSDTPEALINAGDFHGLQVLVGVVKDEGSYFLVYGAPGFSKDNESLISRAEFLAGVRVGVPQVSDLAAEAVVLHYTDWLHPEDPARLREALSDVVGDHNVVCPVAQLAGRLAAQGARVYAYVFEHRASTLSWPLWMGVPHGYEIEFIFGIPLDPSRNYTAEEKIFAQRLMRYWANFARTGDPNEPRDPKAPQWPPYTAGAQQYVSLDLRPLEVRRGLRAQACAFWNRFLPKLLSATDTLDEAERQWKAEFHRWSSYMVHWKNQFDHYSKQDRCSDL
UniProt P81908, whole entry, looked up: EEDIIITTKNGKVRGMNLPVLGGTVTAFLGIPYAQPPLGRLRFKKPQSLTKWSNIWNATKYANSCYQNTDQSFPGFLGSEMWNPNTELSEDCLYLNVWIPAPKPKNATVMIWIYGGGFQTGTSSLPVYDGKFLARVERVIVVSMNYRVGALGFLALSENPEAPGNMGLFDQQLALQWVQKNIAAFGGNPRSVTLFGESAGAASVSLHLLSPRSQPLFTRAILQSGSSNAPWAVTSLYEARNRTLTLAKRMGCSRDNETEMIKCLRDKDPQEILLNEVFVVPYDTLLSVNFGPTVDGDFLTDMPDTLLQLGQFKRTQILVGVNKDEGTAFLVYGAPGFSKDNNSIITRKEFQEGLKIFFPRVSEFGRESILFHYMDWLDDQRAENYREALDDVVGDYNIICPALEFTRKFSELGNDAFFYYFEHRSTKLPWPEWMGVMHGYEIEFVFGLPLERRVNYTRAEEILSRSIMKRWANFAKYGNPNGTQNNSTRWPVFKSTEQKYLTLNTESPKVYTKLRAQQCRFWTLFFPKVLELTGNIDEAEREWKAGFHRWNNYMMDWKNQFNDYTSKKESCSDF

Experiments:
[1] = Risk level score (sum of five risk factors); settings: score 0 to 5, sum of factors 0 or 1 for hAChE IC50, eqBuChE IC50, QSAR neurotoxicity, QSAR reprotoxicity, cluster; 0 = lack of risk, 5 = very high risk
[2] = target: human erythrocyte AChE (hAChE) (Homo sapiens, UniProt P22303); test: Inhibition of acetylcholinesterase, spectrometric method of Ellman; assay type: biochemical; settings: 5 min pre-incubation 25° C., n=3, Compound 2 value for n = 1
[3] = target: BuChE from equine serum (eqBuChE) (Equus caballus, UniProt P81908); test: Inhibition of butyrylcholinesterase, spectrometric method of Ellman; assay type: biochemical; settings: 5 min pre-incubation 25° C., n=3, Compound 2 value for n = 1

In the case of `CCCCOP(=O)(OCCCC)OCCCC`, the Risk level [1] is reported as 3, the “IC50 hAChE” value [2] is reported as 7.9 µg/mL (≈ 29.7 µM) and the “IC50 eqBuChE” value [3] is reported as 21 µg/mL (≈ 78.9 µM).
